# Experimental data: publication PMC6886544
# Chains of the proteins cited; added tags and fusions are not shown. Residues count along the entry.
# UniProt P00533, 25-1210 L858R: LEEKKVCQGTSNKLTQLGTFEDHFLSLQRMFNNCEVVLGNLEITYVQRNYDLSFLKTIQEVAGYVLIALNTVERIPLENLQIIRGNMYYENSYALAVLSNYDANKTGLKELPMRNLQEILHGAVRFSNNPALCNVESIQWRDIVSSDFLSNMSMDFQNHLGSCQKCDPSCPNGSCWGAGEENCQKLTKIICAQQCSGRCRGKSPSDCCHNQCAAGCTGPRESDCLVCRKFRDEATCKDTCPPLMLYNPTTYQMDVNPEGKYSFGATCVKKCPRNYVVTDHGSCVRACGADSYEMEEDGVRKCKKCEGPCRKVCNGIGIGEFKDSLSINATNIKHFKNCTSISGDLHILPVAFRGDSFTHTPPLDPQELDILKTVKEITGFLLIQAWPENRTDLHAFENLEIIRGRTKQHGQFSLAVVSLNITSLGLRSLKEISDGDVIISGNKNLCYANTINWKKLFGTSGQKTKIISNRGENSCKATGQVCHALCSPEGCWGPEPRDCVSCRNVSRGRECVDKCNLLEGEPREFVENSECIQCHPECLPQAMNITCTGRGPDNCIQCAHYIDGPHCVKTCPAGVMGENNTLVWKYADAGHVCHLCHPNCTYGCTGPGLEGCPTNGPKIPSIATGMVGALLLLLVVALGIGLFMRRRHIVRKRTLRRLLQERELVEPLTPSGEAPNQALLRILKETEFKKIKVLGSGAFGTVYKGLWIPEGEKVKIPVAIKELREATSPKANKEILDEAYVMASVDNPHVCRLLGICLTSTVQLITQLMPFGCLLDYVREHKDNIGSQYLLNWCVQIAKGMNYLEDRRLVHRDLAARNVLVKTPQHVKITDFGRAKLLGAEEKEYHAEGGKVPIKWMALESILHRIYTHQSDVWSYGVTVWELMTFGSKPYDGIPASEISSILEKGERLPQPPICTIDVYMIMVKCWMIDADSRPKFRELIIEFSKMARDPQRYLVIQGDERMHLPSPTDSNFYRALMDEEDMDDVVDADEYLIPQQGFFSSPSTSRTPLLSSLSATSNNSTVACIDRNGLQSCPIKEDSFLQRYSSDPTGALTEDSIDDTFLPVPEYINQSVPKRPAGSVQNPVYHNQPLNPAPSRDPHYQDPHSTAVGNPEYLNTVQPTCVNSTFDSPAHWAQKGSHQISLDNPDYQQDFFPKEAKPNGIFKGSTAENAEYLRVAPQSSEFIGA
# UniProt P00533, 25-1210 T790M/L858R: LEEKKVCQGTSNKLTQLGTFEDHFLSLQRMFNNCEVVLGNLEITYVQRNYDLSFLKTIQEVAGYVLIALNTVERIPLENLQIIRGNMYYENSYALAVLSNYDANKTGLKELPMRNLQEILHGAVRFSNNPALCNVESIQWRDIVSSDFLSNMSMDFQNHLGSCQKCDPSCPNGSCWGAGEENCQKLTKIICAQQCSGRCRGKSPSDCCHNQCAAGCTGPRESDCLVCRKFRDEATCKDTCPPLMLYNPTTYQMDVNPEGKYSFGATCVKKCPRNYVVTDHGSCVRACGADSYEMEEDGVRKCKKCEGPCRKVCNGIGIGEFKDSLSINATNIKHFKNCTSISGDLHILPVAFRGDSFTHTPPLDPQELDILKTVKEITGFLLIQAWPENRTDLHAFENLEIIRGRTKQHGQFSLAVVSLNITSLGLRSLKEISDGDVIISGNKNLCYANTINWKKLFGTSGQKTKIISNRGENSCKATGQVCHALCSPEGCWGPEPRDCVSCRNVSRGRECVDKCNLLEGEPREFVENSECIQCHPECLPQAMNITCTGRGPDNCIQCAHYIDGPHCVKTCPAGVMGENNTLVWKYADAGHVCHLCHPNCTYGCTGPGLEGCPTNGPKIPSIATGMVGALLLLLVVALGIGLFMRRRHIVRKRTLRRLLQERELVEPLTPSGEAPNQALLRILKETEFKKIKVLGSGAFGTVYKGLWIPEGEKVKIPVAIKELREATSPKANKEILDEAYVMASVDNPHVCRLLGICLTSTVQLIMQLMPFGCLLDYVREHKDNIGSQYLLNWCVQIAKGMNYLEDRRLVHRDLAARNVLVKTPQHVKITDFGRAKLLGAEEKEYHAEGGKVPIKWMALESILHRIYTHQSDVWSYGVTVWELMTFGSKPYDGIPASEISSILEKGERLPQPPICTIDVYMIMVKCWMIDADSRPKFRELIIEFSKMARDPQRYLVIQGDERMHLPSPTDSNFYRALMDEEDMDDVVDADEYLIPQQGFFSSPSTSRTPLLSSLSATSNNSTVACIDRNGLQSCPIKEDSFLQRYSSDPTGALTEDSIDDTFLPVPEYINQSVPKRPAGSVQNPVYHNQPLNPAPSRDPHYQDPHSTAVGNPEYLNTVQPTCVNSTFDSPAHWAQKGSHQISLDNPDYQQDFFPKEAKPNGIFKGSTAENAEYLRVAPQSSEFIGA
# UniProt P00533, 25-1210: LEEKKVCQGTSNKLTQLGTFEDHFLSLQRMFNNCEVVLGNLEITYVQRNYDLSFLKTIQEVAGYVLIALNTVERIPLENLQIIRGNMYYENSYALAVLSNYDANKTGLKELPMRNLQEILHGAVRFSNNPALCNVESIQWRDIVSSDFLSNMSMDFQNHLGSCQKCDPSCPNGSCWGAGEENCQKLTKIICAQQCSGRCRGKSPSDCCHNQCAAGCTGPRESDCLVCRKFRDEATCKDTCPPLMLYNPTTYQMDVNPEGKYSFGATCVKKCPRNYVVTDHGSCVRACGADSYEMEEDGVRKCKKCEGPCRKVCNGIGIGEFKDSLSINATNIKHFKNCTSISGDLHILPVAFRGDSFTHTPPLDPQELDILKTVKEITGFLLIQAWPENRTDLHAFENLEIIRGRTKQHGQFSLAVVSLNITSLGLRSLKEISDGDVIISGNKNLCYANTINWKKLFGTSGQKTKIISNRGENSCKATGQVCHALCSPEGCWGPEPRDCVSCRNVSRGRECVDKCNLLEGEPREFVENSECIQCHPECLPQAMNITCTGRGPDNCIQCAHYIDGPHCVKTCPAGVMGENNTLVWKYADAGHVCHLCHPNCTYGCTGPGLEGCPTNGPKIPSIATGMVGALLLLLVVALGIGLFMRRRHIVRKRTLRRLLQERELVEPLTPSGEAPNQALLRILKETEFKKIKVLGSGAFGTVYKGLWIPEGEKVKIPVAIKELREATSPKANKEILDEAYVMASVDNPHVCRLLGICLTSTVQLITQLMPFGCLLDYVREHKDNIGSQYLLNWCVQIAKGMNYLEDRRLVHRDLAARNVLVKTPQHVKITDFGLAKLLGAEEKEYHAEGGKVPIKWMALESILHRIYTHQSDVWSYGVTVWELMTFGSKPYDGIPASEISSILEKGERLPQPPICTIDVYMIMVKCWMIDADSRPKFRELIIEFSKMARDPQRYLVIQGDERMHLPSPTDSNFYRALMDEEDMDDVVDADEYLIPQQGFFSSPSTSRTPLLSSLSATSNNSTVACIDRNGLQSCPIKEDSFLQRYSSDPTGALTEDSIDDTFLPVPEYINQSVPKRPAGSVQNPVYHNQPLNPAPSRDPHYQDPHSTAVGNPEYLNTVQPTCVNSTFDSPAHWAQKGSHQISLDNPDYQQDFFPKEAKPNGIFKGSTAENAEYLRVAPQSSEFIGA
# Experiments:
# [1] = target: T1, EGFR-L858R (Homo sapiens, UniProt P00533, L858R); experiment: HTRF KinEASE-TK activity-based assay, EGFR-L858R
# [2] = target: T1, EGFR-L858R; experiment: Kinetic characterization (Ki, kinact), EGFR-L858R
# [3] = target: T2, EGFR-L858R/T790M (Homo sapiens, UniProt P00533, L858R/T790M); experiment: Kinetic characterization (Ki, kinact), EGFR-L858R/T790M
# [4] = target: T2, EGFR-L858R/T790M; experiment: HTRF KinEASE-TK activity-based assay, EGFR-L858R/T790M; conditions: ATP at Km (4 µM), 30 min preincubation, mean ± SD of three independent measurements in duplicates
# [5] = target: T3, EGFR-wt (Homo sapiens, UniProt P00533); experiment: HTRF KinEASE-TK activity-based assay, EGFR-wt; conditions: ATP at Km (9.5 µM), 30 min preincubation, mean ± SD of three independent measurements in duplicates
# [6] = target: T3, EGFR-wt; experiment: Kinetic characterization (Ki, kinact), EGFR-wt
structure (smiles),measurement,setting,value
"Cc1cc(C(=O)Nc2nc3cccc(Cl)c3n2[C@@H]2CCCCN(C(=O)/C=C/CN(C)C)C2)ccn1 [EGF816, nazartinib, reference compound]",IC50,[1],0.6 ± 0.3 nM
same,Ki,[2],10 ± 2.7 nM
same,Ki,[3],7.7 ± 2.3 nM
same,IC50,[4],0.3 ± 0.1 nM
same,IC50,[5],1.7 ± 0.8 nM
same,Ki,[6],25 ± 7.8 nM
